Consider 1 compound from PMC4638363, “Linear Interaction Energy Based Prediction of Cytochrome P450 1A2 Binding Affinities with Reliability Estimation” (PLoS ONE, 2015).

Amino acid sequences for entries named in this document (tags omitted).
UniProt P05177, whole entry: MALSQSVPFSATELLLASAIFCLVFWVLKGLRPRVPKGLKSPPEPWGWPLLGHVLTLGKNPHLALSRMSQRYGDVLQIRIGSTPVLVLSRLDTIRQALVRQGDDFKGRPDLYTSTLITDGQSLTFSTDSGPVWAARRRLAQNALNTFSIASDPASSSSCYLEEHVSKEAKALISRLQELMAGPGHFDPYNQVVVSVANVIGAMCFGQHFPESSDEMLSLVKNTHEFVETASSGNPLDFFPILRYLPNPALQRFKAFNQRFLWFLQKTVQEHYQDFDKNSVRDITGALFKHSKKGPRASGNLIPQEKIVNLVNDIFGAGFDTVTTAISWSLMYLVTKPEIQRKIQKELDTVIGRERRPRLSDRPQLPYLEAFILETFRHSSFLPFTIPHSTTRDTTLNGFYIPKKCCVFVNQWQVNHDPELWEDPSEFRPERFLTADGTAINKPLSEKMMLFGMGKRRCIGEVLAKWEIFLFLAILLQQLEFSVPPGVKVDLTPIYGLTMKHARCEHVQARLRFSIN

In data set [1] the target is T1, human CYP 1A2 (Homo sapiens, UniProt P05177). Briefly: in-house CYP 1A2 inhibition assay with 7-methoxyresorufin as substrate (resorufin fluorescence).
Data set [2] concerns the target T1, human CYP 1A2. The note with it: training set.

Turning to `O=c1cc(-c2ccccc2)oc2c1ccc1ccccc12` [Compound 7, alpha-Naphthoflavone], the ΔΔG bind on human CYP 1A2 [1] (difference in ΔG bind between literature and in-house determined values) is 0.574 kcal/mol. In addition, the “ΔG bind (inhouse)” value on human CYP 1A2 [1] (from in-house IC50 via Cheng-Prusoff and RTln(Ki)) is -10.8 ± 0.884 kcal/mol. Further, at human CYP 1A2 [2], the “Residual (ΔGbind^Obs—ΔGbind^Calc)” value was -0.311 kcal/mol.
